Experimental findings from paper PMC8661032, “Broad-Spectrum Antibacterial Peptide Kills Extracellular and Intracellular Bacteria Without Affecting Epithelialization” (Frontiers in Microbiology, 2021) are described below.

Assay [1] deals with S. aureus ATCC 29213 and SO-SAU19-1. The conditions noted are these: S. aureus ATCC 29213, serial passage, parallel 2, after 30 days.
Another assay deals with E. coli. As to the kind of experiment: Rifampicin (RifR) mutagenesis assay after UV-C. It is filed as cell-based, Escherichia coli. The conditions noted are these: 20 μg/mL, UV-C 20 mJ/cm2, RifR assay, three independent experiments. As to the method:
The rifampicin (Rif^R) mutagenesis assay was performed as described ([Nedal et al., 2020]). Briefly, an overnight culture of E. coli was diluted 1:1,000 and grown until an OD600 of 0.01. APIM-peptides (20 μg/ml) were added to LB media with glass beads (for uniform distribution of APIM-peptides) and incubated for 30 min at 37°C. The pellets were next collected, resuspended in 500 μl PBS, and exposed to UV-C (20 mJ/cm^2) in a six-well plate at 4°C. The unexposed bacteria (-UV) were otherwise handled exactly like the UV-exposed bacteria. Next, the cells were resuspended in LB media and incubated in a rotary shaker at 37°C at 250 rpm for 2 h before being harvested, diluted, and plated on LB with soft agar with and without rifampicin (100 μg/ml). Mutation frequency, Rif^R/10^8, is obtained as follows: (number of colonies on the rifampicin plate (Rif^R)/(number of colonies on LB plates without antibiotics), per milliliter of bacterial suspension.
Supplementary Figure S3 (related to Table 2): Peptide 2 (betatide) reduces UV-induced […]
mutagenesis in E. coli more efficiently than the other peptide variants.
Increase in mutation frequencies after treatment with UV-C (20 mJ/cm2) relative to spontaneous mutations frequencies using the RifR assay were determined. This increase is set to 100% for untreated control, and % reduction after addition of peptides 1-5 (20 μg/mL) are shown. […]

Residues, ends and D or L forms follow the SMILES beside them.

Take `CC[C@H](C)[C@H](NC(=O)CNC(=O)[C@H](CCCCN)NC(=O)[C@@H](NC(=O)[C@H](CC(C)C)NC(=O)[C@H](Cc1c[nH]c2ccccc12)NC(=O)[C@H](CCCNC(=N)N)NC(=O)[C@H](CC(=O)O)NC(=O)[C@H](CCSC)NC(C)=O)C(C)C)C(=O)N[C@@H](CC(C)C)C(=O)N[C@@H](CCC(N)=O)C(=O)N[C@@H](Cc1c[nH]c2ccccc12)C(=O)N[C@@H](CCCNC(=N)N)C(=O)N[C@@H](CCCCN)C(=O)N[C@H](C(=O)N[C@@H](CCCNC(=N)N)C(=O)N[C@@H](CCCNC(=N)N)C(=O)N[C@@H](CCCNC(=N)N)C(=O)N[C@@H](CCCNC(=N)N)C(=O)N[C@@H](CCCNC(=N)N)C(=O)N[C@@H](CCCNC(=N)N)C(=O)N[C@@H](CCCNC(=N)N)C(=O)N[C@@H](CCCNC(=N)N)C(=O)N[C@@H](CCCNC(=N)N)C(=O)N[C@@H](CCCNC(=N)N)C(=O)N[C@@H](CCCNC(=N)N)C(N)=O)[C@@H](C)CC` [betatide] (Ac-MDRWLVKGILQWRKIRRRRRRRRRRR-NH2): the resistance development result in assay [1] is “no detectable resistance development”. In addition, in the assay with E. coli, the “UV-induced mutation frequencies relative to control” value is on record as “significantly reduced”.
